Reference: patent US7220727B2, “Aminoglycosides as antibiotics” (priority 2000, dated 2007)

System: NC[C@H]1O[C@H](O[C@H]2[C@H](O)[C@@H](O)[C@H](N)C[C@@H]2N)[C@H](N)[C@@H](O)[C@@H]1O
Experiment: purified protein, by the assay type
Details: other: APH(3′)-II; pH 7.5

**Q.** APH(3′)-IIa (Klebsiella pneumoniae) was tested. Which Km did it give?
**A.** Its Km is 1 µM.
